Amino acid sequences for entries named in this document (tags omitted).
Protein AF-9 (Homo sapiens), P42568, UniProt P42568, whole entry, looked up: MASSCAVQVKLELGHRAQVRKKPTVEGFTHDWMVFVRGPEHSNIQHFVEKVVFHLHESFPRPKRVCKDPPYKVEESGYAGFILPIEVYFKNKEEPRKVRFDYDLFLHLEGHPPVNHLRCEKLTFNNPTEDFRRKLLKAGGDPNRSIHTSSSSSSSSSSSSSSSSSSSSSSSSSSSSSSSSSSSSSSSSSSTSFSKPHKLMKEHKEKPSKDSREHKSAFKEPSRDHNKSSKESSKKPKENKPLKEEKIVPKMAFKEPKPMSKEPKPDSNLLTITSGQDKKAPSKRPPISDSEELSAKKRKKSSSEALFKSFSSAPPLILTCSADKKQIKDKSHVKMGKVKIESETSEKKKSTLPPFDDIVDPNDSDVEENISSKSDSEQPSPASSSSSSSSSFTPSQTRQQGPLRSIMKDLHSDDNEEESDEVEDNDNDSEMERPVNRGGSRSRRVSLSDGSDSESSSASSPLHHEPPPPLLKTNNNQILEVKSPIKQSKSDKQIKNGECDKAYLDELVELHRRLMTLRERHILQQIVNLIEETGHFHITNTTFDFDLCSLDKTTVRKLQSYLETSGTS

# Sampled rows, rich in hits. Any-hit rate of the full collection: about 1.3%.
# S100A4 inh HTS: inhibitors of S100A4-myosin IIA peptide binding, primary screen, biochemical, fluorescence polarization, TAMRA-MyoIIA peptide; Protein S100-A4 (Homo sapiens), P26447; inhibition, % at 10.7 µM; 0.14% of 360,000 active; AID 652163, 2013;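 active means mean inhibition of at least 70% across replicates, with every replicate also reaching that level; inconclusive means mean inhibition reaches 70% but some replicates fall short; inactive means mean inhibition below 70%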
#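 Test system: S100A4 monomer protein. Medium: HEPES buffer with Ca2+, pH 7.2. Reagent: fluorescent myosin IIA peptide, 5 nM. Compound dosing: single-point compound testing. Timing: 5 min between mix addition and reading. Benchmarks: DMSO neutral and TFP positive wells.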
# E-sel inducer: E-selectin induction in HUVECs, primary screen, imaging, HUVEC, immunofluorescence imaging, single point; 0.37% of 260,000 active; activation, % at 7.58 µM; AID 686992, 2013; normalized: neutral wells 0, TNF-alpha wells 100; P16581;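 active means mean E-selectin-positive cell signal at least 10% of the positive control, reached in at least 60% of replicates, without over 20% cell loss; inconclusive means no rule given, readout overlaps actives, possibly toxicity-flagged; inactive means the rest, including those meeting only one limit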
#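 Test system – human umbilical vein endothelial cells (HUVEC), E-selectin induction · Input – 3,000 HUVEC seeded per well · Buffer or medium – EGM-2, gelatin · Compound dosing – single-point compound dose · Detection – immunofluorescence imaging · Measure – percent E-selectin-positive cells · Controls – TNF-alpha high, DMSO low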
# ERAP1 HTS inh: human ERAP1 aminopeptidase inhibitors, primary screen, biochemical, single point, plate reader; Endoplasmic reticulum aminopeptidase 1 (Homo sapiens), Q9NZ08; recombinant ERAP1, Leu-AMC fluorescence, 60 min; inhibition, % at 10.7 µM; 0.15% of 340,000 active;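 active means mean replicate inhibition of at least 30%, or all replicates individually reaching that 30% level; inactive means mean below 30% and not every replicate reaching it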;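 further: 0% = neutral control wells and 100% = L-leucinethiol positive control wells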
# MLL AF4-AF9 inh: inhibitors of AF4 peptide binding to AF9, primary screen, biochemical, AlphaScreen, biotin-AF4 peptide, FLAG-AF9, single point | Protein AF-9 (Homo sapiens), P42568 | inhibition, % at 10 µM | AID 651704, 2012 | 0.47% of 350,000 active;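 active means every replicate reaching a set inhibition limit, whatever the replicate mean, cut at about 25% in these data; inconclusive means mean inhibition reaches that limit but some replicates miss it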;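 further: 0% = plate neutral control median and 100% = total signal loss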
# ARNT-TACC3 inh: disruptors of ARNT/TACC3 protein interaction, primary screen, biochemical, AlphaScreen, single concentration; Transforming acidic coiled-coil-containing protein 3 (Homo sapiens), Q9Y6A5; AID 623870, 2012; inhibition, % at 9.99 µM; AlphaScreen His-ARNT PAS-B/GST-TACC3 binding, luminescence; TACC3 fragment carries E629A point mutation; 0.66% of 390,000 active;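 active means mean inhibition of replicates at least 50% and at least half of replicates each reaching 50%; inconclusive means half or more replicates reach 50% but mean below 50%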;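 further: 0% = complete ARNT plus TACC3 wells and 100% = ARNT alone without TACC3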
# UUG fidelity: modulators of yeast start codon fidelity, primary screen, whole organism, S. cerevisiae, single point, plate reader. S. cerevisiae UUG-firefly luciferase reporter, luminescence/redox ratio. activity score, % at 18.7 µM. hit rate 0.13% among 350,000;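 active = replicate mean at a twofold rise or more, about +100% in these data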;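 also: firefly luciferase made from a UUG start codon reports start codon fidelity; reporter light over untreated wells divided by growth signal over untreated wells; some hits fall short of that in this replicate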
# AlphaScreen intf: AlphaScreen signal interference counter-screen, dose response, artefact control, biochemical, cherry-picked samples, luminescence | shares compounds with MLL AF4-AF9 inh | AC50, µM (titrated, usually from 12 µM), inactives show at the top dose activity change, negative = inhibition | 45% of 530 active | AID 720494, 2013; cut-off not given, nearly all actives have AC50 up to about 14 µM
# Starred values were filed as active, the others as inactive; ? = inconclusive; · = no result.
# Below each SMILES – S100A4 inh HTS | E-sel inducer | ERAP1 HTS inh | MLL AF4-AF9 inh | ARNT-TACC3 inh | UUG fidelity | AlphaScreen intf
CNC(=S)N1N=C(c2ccc(Br)cc2)CC1c1ccc(Br)cc1 (stereo not drawn)
 : · | · | · | · | -0.3 | -14.7 | ·
COc1ccccc1C#Cc1ccc2c(c1)[C@H]1[C@H](CCN1C(=O)c1ccncc1)[C@@H](CO)N2
 : 3.4 | 0.4 | -0.2 | 50.9* | · | · | 7.95µM*
COc1ccccc1C#Cc1ccc2c(c1)[C@@H]1[C@@H](CCN1C(=O)c1ccccc1)[C@H](CO)N2
 : -22.8 | -0.7 | -0.5 | -1.9 | · | · | ·
CC1=C/C(=C(\c2cc(C)c(O)c(Br)c2)c2ccccc2S(=O)(=O)O)C=C(Br)C1=O
 : -1.5 | 0.1 | 21.4 | 52.4* | 28.2 | 0.6 | 8.9µM*
N#C/C(C(N)=O)=c1/ccc2c(c1)N1C3=C(CCCC3)CC3CCCCC31N=2 (stereo not drawn)
 : -6.6 | · | · | 84.5* | 65.4* | 1.2 | 2.71µM*
CC(=O)Nc1ccc2c(c1)C(=O)N(C)[C@H]1CC[C@@H](CC(=O)NCc3ccccc3)O[C@H]1CO2
 : -14.1 | 0.1 | 2.0 | 2.5 | -2.7 | 4.0 | ·
Cn1c(SCC(=O)N2c3ccccc3Sc3ccc(Cl)cc32)nnc1-c1ccco1
 : -4.7 | · | 8.3 | ? | -8.6 | -2.8 | -2.4%
Cc1cccc(NNC(=O)C(=O)NNc2cccc(C)c2)c1
 : 1.5 | 0.7 | · | -1.4 | -2.8 | -20.4 | ·
Cc1cccc(N=NC(=S)NNc2cccc(C)c2)c1
 : -0.1 | 0.1 | 3.7 | 35.6* | · | · | 1.02µM*
CN(C)CCNc1ccc2nnn3c4ccc(O)cc4c(=O)c1c23
 : 1.1 | 0.0 | 1.4 | -3.5 | 44.9 | · | ·
CCN(CC)CCCNc1ccc2ncn3c4ccc(O)cc4c(=O)c1c23
 : 7.3 | -0.1 | 32.9* | 24.0 | 74.0* | · | -20.3%
CCC[C@@H](CN1CCC[C@H]1CN1C(N)=NC[C@@H]1Cc1ccccc1)N1C[C@@H](Cc2ccccc2)N(CCc2ccc(Cl)c(Cl)c2)C1=N
 : 0.3 | 0.2 | 3.3 | 29.9* | 19.2 | 15.5 | -8.7%
CC(=Nc1ccc(C)cc1C)c1sc2ccccc2c1O
 : 0.5 | -4.1 | · | 32.5* | 3.0 | · | -23.5%
COC(=O)C1=CN(Cc2ccc(OC)cc2)C=C(C(=O)OC)C1c1cccs1
 : -1.8 | · | -6.4 | -12.9 | 0.8 | · | ·
COC(=O)C1=CC(C(=O)c2cccs2)=NN(c2ccc(OC)cc2)C1C(=O)OC (stereo not drawn)
 : -4.9 | -0.2 | -3.3 | 32.4* | 6.5 | · | -25.1%
Cc1ccccc1-c1cnc2c(c1)C(=O)N([C@H](C)CO)C[C@@H](C)[C@@H](CN(C)C(=O)CN(C)C)O2
 : 18.5 | 0.2 | -0.3 | -2.0 | -2.5 | -1.9 | ·
CNCCNC[C@H](Cc1cccc2ccccc12)NCCc1ccccc1
 : -0.2 | -0.2 | 0.2 | 12.7 | -4.1 | -10.5 | ·
CNC[C@H](Cc1ccccc1)NC[C@@H](Cc1cccc2ccccc12)NCCc1ccc(C)cc1
 : -1.1 | 0.2 | · | 44.6* | 17.5 | -3.4 | -23.7%
COc1ccc(S(=O)(=O)Nc2ccc3c(c2)C(=O)N([C@@H](C)CO)C[C@@H](C)[C@@H](CN(C)C(=O)Nc2ccc4c(c2)OCO4)OCCCC[C@H](C)O3)cc1
 : 3.9 | -0.2 | -3.3 | 1.8 | -1.6 | -8.5 | ·
CCOc1ccc(NC(=S)N(CCN2CCOCC2)Cc2ccc3c(c2)CCCN3CC)cc1
 : -13.3 | 3.3 | 0.5 | 39.3* | 13.1 | -21.8 | -27.9%
Cc1noc(C)c1S(=O)(=O)Nc1ccc2c(c1)CC(=O)N([C@@H](C)CO)C[C@@H](C)[C@@H](CN(C)S(C)(=O)=O)O2
 : · | -9.6 | · | · | -9.7 | 6.9 | ·
COc1ccc(N=C2S/C(=C\c3ccc(Cl)c([N+](=O)[O-])c3)C(=O)N2CCN(C)C)cc1
 : -2.2 | 0.3 | -2.8 | 26.0* | 21.3 | 9.1 | 6.7µM*
COc1ccccc1NC(=O)N1[C@H](C#N)[C@@H](c2ccccc2)[C@@H]1CO
 : 12.9 | 0.5 | 0.2 | -0.9 | 5.2 | · | ·
N=C1C=CC(=C(c2ccc(N)cc2)c2ccc(N)cc2)C=C1
 : 5.5 | 38.9* | 1.0 | 45.0* | 2.6 | · | 10.9µM*
C[C@H]1CN([C@@H](C)CO)C(=O)c2cc(C#Cc3ccccc3F)cnc2O[C@H]1CN(C)C(=O)C1CCC1
 : 2.6 | 0.0 | -1.2 | -1.2 | -1.7 | 8.8 | ·
Cn1c(=O)cc2c3c(c(N4CCCCC4)ccc31)C(=O)c1ccccc1-2
 : 103.4* | · | -1.0 | 54.3* | · | 16.8 | 10.3µM*
COCC(=O)N(C)C[C@@H]1Oc2cc(C#C[C@H](C)O)ccc2S(=O)(=O)N([C@H](C)CO)C[C@@H]1C
 : -25.7 | 0.0 | -3.3 | -2.6 | 2.4 | -0.4 | ·
COc1ccc(NC2=C(NC(C)=O)C(=O)c3ccccc3C2=O)cc1
 : -6.2 | ? | -0.5 | 9.5 | -5.0 | 6.1 | ·
COc1cccc(NC2=C(NCCO)C(=O)c3ccccc3C2=O)c1
 : -0.2 | · | 0.9 | 37.7* | 47.4* | -10.3 | 13.6µM*
Cc1cccc(NC2=C(NCCO)C(=O)c3ccccc3C2=O)c1
 : 2.5 | 0.0 | 0.5 | 48.6* | 38.8* | -13.0 | -25.5%

# Taken from above (five entries):
# Below each SMILES – S100A4 inh HTS | E-sel inducer | ERAP1 HTS inh | MLL AF4-AF9 inh | ARNT-TACC3 inh | UUG fidelity | AlphaScreen intf
CCC[C@@H](CN1CCC[C@H]1CN1C(N)=NC[C@@H]1Cc1ccccc1)N1C[C@@H](Cc2ccccc2)N(CCc2ccc(Cl)c(Cl)c2)C1=N
 : 0.3 | 0.2 | 3.3 | 29.9* | 19.2 | 15.5 | -8.7%
CC(=Nc1ccc(C)cc1C)c1sc2ccccc2c1O
 : 0.5 | -4.1 | · | 32.5* | 3.0 | · | -23.5%
COC(=O)C1=CN(Cc2ccc(OC)cc2)C=C(C(=O)OC)C1c1cccs1
 : -1.8 | · | -6.4 | -12.9 | 0.8 | · | ·
COC(=O)C1=CC(C(=O)c2cccs2)=NN(c2ccc(OC)cc2)C1C(=O)OC (stereo not drawn)
 : -4.9 | -0.2 | -3.3 | 32.4* | 6.5 | · | -25.1%
Cc1ccccc1-c1cnc2c(c1)C(=O)N([C@H](C)CO)C[C@@H](C)[C@@H](CN(C)C(=O)CN(C)C)O2
 : 18.5 | 0.2 | -0.3 | -2.0 | -2.5 | -1.9 | ·

# Other records.
# Below each SMILES – S100A4 inh HTS | E-sel inducer | ERAP1 HTS inh | MLL AF4-AF9 inh | ARNT-TACC3 inh | UUG fidelity | AlphaScreen intf
COc1ccc(NC2=C(NCCO)C(=O)c3ccccc3C2=O)cc1
 : 5.5 | 0.2 | -1.0 | 56.3* | 59.6* | · | 13.8µM*
Cc1noc(C)c1S(=O)(=O)Nc1ccc2c(c1)C(=O)N([C@@H](C)CO)C[C@H](C)[C@@H](CN(C)S(=O)(=O)c1ccc(Cl)cc1)OCCCC[C@@H](C)O2
 : -10.8 | · | -2.5 | 4.4 | -1.6 | 2.5 | ·
COc1ccc(C#Cc2cnc3c(c2)C(=O)N([C@@H](C)CO)C[C@@H](C)[C@H](CN(C)C(=O)Nc2cccc(OC)c2)O3)cc1
 : · | 0.5 | · | · | · | -3.3 | ·
CCN(CC)S(=O)(=O)N1CCC(C(=O)NCc2ccc(C)cc2)CC1
 : · | · | · | · | -3.6 | -9.7 | ·
CCN(CC)c1ccc(CN2CCC(C(=O)NCc3ccc(C)cc3)CC2)cc1
 : 1.3 | 2.7 | 0.0 | ? | 12.4 | · | -34.5%
Nc1ccc(N)c(C(=O)O)c1
 : 23.9 | · | · | 26.7* | 47.4* | -5.0 | -8.0%
COc1ccc(OC)c(C2=NOC(C(=O)Nc3c(C)n(C)n(-c4ccccc4)c3=O)C2)c1 (stereo not drawn)
 : -2.0 | 0.0 | 1.6 | -7.6 | -8.1 | 2.3 | 4.6%
COc1ccc(C2=NOC(C(=O)Nc3c(C)n(C)n(-c4ccccc4)c3=O)C2)cc1 (stereo not drawn)
 : -7.7 | 0.2 | -3.3 | -5.8 | 0.5 | -7.9 | ·

# Source: PubChem
